Source: PMC3794980, “Identification of Conserved and HLA Promiscuous DENV3 T-Cell Epitopes” (PLoS Neglected Tropical Diseases, 2013)

What was measured:
[1] = system: HLA-DR2 (DRA1*0101/I-Eα; DRB1*1501/I-Eβ) transgenic mice; conditions: representative IFN-γ ELISPOT data, CD8-depleted splenocytes of HLA-DR2 TgM
[2] = system: HLA-DR3 (DRA1*0101; -DRB1*0301) transgenic mice; conditions: representative IFN-γ ELISPOT data, CD8-depleted splenocytes of HLA-DR3 TgM
[3] = system: HLA-DR4 (HLA-DRA1*0101; -DRB1*0401) transgenic mice; conditions: representative IFN-γ ELISPOT data, CD8-depleted splenocytes of HLA-DR4 TgM

ANAIFKLTYQNKVVKVQ [NS5_564–580]
Transgenic mice DR2 (ELISPOT) [1]: 849+8 SFC per 1 million cells

ASIAARGYISTRVGM [NS3_293–307]
Transgenic mice DR2 (ELISPOT) [1]: 27+4 SFC per 1 million cells

DENPYKTWAYHGSYEVK [NS5_295–311]
Transgenic mice DR2 (ELISPOT) [1]: 126+10 SFC per 1 million cells

KKVIQLSRKTFDTEY [NS3_381–395]
Transgenic mice DR3 (ELISPOT) [2]: 23+1 SFC per 1 million cells

MYFHRRDLRLASNAI [NS5_765–779]
Transgenic mice DR2 (ELISPOT) [1]: 75+16 SFC per 1 million cells | Transgenic mice DR4 (ELISPOT) [3]: 531+10 SFC per 1 million cells

TWAYHGSYEVKATGSA [NS5_301–316]
Transgenic mice DR2 (ELISPOT) [1]: 161+20 SFC per 1 million cells | Transgenic mice DR4 (ELISPOT) [3]: 19+0 SFC per 1 million cells

VERLKRMAISGDDCVVK [NS5_652–668]
Transgenic mice DR3 (ELISPOT) [2]: 255+22 SFC per 1 million cells

WPKSHTLWSNGVLES [NS1_225–239]
Transgenic mice DR3 (ELISPOT) [2]: 129+3 SFC per 1 million cells
